PubChem BioAssay (NCATS)
Only a part is listed here, and it is no random draw. Results filed as inconclusive are left out. For some of these results: Results with a measured potency or affinity are listed apart. Activity calls are given as the source filed them. Unless noted, calls follow the shape of the dose curve; as a rule, active = well fitted curve in either direction with a large enough effect (not every such curve was filed as active); inconclusive = small, poorly fitted or top-dose-only effect, or another doubt; inactive = flat fitted curve, though single readings scatter.

Sequences of proteins named here, by UniProt entry; tags and fusion partners are left off. A change or cut given only in a name is not applied to a line headed by its entry.
UniProt Q07343: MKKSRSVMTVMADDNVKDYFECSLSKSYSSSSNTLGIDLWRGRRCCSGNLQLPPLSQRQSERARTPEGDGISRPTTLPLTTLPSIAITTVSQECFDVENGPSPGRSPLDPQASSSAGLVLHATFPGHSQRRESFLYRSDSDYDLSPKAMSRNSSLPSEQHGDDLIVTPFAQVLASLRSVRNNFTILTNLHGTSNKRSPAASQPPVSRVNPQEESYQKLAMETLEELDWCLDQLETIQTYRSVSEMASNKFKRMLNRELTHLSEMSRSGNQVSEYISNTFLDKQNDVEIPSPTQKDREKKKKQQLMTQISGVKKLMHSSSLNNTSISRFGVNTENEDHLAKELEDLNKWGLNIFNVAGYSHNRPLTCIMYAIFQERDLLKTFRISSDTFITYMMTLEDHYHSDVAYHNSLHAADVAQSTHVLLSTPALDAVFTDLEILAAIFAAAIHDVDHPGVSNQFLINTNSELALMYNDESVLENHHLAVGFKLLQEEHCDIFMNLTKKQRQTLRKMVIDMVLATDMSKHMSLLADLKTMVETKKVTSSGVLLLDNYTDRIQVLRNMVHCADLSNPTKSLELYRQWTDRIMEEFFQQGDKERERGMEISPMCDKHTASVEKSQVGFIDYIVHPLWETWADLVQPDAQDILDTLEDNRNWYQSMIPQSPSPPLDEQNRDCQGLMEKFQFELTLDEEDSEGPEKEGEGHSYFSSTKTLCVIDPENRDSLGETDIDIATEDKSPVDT
UniProt P03372, whole entry, looked up: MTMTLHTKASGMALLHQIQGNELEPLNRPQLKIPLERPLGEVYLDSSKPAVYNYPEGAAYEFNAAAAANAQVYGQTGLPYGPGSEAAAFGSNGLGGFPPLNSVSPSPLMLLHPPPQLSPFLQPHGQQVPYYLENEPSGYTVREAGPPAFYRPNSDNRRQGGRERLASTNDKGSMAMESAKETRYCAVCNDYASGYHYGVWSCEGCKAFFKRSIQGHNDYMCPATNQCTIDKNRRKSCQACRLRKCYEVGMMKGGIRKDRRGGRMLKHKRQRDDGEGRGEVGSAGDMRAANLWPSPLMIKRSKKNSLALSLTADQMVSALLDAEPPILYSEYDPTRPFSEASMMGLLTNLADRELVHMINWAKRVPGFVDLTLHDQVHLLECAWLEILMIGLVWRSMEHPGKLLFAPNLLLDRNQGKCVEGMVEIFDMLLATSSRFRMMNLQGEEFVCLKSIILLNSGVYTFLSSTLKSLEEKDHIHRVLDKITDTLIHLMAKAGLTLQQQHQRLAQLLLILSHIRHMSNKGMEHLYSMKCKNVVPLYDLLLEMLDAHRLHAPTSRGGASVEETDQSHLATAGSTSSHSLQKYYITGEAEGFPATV
UniProt Q03181: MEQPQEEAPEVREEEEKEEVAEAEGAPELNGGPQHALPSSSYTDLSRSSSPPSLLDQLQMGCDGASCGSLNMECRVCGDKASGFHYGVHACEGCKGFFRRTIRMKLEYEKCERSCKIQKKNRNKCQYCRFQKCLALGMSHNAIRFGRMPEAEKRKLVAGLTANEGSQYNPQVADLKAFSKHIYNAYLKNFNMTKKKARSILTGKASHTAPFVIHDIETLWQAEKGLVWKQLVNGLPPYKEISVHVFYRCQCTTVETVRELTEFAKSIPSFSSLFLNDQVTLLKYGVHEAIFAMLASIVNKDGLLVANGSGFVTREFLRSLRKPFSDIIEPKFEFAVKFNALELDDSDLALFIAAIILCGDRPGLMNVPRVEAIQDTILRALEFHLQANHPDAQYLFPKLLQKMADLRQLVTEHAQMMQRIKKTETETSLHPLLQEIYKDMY
UniProt P10828: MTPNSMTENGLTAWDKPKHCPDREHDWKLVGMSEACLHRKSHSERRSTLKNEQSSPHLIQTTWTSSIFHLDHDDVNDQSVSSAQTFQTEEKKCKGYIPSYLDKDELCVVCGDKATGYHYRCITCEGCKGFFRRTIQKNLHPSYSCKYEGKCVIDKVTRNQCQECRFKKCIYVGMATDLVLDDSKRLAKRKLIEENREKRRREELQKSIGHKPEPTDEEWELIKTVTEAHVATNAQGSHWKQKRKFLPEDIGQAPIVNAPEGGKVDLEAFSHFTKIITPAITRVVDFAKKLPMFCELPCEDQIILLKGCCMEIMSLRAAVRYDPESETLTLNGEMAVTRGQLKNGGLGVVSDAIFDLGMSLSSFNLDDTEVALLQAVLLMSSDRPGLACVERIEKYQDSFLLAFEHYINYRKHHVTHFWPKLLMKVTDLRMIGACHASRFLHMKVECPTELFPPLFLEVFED
UniProt P19793: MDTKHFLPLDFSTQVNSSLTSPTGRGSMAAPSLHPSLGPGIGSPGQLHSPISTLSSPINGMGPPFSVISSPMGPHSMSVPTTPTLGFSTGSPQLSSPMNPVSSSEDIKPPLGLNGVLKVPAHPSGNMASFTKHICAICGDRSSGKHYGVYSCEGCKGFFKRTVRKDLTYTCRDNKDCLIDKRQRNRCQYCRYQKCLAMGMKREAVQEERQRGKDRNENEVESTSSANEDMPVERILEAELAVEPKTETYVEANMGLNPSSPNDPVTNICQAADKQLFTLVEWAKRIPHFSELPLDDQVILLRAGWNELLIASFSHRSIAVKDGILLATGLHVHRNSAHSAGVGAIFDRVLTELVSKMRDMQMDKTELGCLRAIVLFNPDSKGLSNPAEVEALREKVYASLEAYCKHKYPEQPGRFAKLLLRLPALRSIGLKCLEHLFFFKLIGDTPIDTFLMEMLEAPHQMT
UniProt Q07869: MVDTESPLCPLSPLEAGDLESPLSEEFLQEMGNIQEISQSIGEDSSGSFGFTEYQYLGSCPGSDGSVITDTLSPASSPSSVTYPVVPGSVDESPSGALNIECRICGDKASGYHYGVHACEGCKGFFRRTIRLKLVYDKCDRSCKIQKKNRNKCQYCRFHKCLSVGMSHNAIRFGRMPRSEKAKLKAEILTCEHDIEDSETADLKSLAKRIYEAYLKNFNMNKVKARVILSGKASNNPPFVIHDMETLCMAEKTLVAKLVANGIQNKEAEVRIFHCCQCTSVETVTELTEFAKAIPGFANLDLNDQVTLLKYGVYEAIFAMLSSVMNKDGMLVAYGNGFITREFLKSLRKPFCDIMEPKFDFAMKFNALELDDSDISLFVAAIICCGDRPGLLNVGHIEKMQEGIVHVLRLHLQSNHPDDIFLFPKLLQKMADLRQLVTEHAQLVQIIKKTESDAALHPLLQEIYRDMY
UniProt Q9R1A7: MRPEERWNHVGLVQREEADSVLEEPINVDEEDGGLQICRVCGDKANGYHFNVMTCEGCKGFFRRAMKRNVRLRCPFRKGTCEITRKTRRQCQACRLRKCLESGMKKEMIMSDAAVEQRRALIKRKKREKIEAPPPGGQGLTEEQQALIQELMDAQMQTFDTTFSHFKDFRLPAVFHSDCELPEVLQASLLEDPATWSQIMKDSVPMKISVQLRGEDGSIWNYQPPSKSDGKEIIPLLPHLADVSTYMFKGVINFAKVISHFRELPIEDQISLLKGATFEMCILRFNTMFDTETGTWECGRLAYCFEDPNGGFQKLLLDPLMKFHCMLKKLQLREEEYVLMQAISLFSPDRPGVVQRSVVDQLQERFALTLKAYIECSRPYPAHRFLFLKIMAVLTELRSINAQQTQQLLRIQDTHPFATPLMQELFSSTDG

Tests used:
[1] = AP1 Signaling Pathway (AID 357); settings: ME-180 AP-1-bla reporter, EGF-induced, beta-lactamase ratio, 5 h; at 7.69 µM (top of the series) unless noted; also: % is scaled to controls: 0 for no effect and ±100 for the full control effect
Summary of the method: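 ME-180 cells with beta-lactamase reporter under AP-1 response element, stimulated with EC50 EGF; compounds tested in titration series, 5 h at 37 °C. CCF4 substrate added 2.5 h at room temperature; 460/530 nm emission ratio gave %activity and AC50.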

[2] = NFAT Signaling Pathway (AID 444); settings: Jurkat NFAT-bla M1, carbachol, beta-lactamase ratio, 5 h; at 7.69 µM (top of the series) unless noted;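 also: carbachol stimulus at about its EC50 of 1 µM final; % is scaled to controls: 0 for no effect and ±100 for the full control effect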
[3] = Stat Signaling Pathway (AID 446); settings: ME-180 (cervical carcinoma) SIE beta-lactamase reporter, IL-6 stimulated, 5 h; at 7.69 µM (top of the series) unless noted;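 also: ME-180 cervical cancer cells given 40 pM IL-6 alongside compound; SIE-controlled beta-lactamase reporter measured as 460/530 nm FRET emission ratio; % is scaled to controls: 0 for no effect and ±100 for the full control effect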
Summary of the method: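 IL-6/STAT signaling read in ME-180 cells via an SIE beta-lactamase reporter. Stimulus was 40 pM IL-6 (its AC50) for 5 hrs, so both activation and inhibition register.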

[4] = molecular target: Mitogen-activated protein kinase 10 (Mus musculus) (UniProt Q61831); assay: JNK3 AlphaScreen Assay (AID 530); settings: JNK3 lysate, c-Jun phosphorylation; at 11.4 µM (top of the series) unless noted;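 also: kinase came from lysate of stimulated human HepG2 cells; signal reports phosphorylation of biotinylated GST-cJun 1-79 at Ser73 with 10 µM ATP; % is scaled to controls: 0 for no effect and ±100 for the full control effect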
Summary of the method: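 Room-temperature AlphaScreen kinase assay; pre-activated HepG2 lysate as JNK3 source, biotin-GST-cJun(1-79) substrate, 10 uM ATP, compound 15 min preincubation.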

[5] = molecular target: 3',5'-cyclic-AMP phosphodiesterase 4B (Homo sapiens) (UniProt Q07343); assay: qHTS Assay for Inhibitors of PDE-IV (AID 607; active = well fitted activation curve with a large enough effect in the main read-out, with a control signal flat, not every such curve was filed as active; also: % of control where 0% means no effect); settings: HEK293 ACTOne CNG channel cells, membrane potential fluorescence; at 22.9 µM (top of the series)
Summary of the method: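 Live HEK293 cells with a modified cyclic nucleotide-gated (CNG) channel report intracellular cAMP via membrane-potential dye fluorescence (ex 535/em 590 nm). Endogenous PDE-IV was targeted. Compounds were tested at up to 22.9 uM final; RO 20-1724 100 uM served as control.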

[6] = molecular target: Estrogen receptor (Homo sapiens) (UniProt P03372); assay: qHTS assay for small molecule antagonists of estrogen receptor alpha signaling (AID 588513; active = well fitted curve in the direction sought with a large enough effect in the signal ratio, with a control signal flat, not every such curve was filed as active; the % refers to the signal ratio; also: % is scaled to controls: 0 for no effect and ±100 for the full control effect); settings: ER-alpha-UAS-bla HEK293, beta-lactamase ratio, antagonist mode; at 76.9 µM (top of the series)
[7] = molecular target: Bile acid receptor (Homo sapiens) (UniProt Q96RI1); assay: qHTS assay for small molecule antagonists of farnesoid X receptor signaling (AID 588526; calls by dose curve; also: % is scaled to controls: 0 for no effect and ±100 for the full control effect); settings: HEK293T FXR-UAS-bla, beta-lactamase ratio, antagonist mode; at 76.7 µM (top of the series)
[8] = molecular target: Bile acid receptor (Homo sapiens) (UniProt Q96RI1); assay: qHTS assay for small molecule agonists of farnesoid X receptor signaling (AID 588527; calls by dose curve;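 also: 0% = vehicle basal and 100% = reference agonist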); settings: HEK293T FXR-UAS-bla, beta-lactamase ratio, 16 h; hits give high values
[9] = molecular target: Glucocorticoid receptor (Homo sapiens) (UniProt P04150); assay: qHTS assay for small molecule agonists of glucocorticoid receptor signaling (AID 588532; active = well fitted curve in the direction sought with a large enough effect in the signal ratio, with a control signal flat; the % refers to the signal ratio;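 also: 100% = dexamethasone at 0.1 µM and 0% = DMSO only wells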); settings: HeLa MMTV-bla, beta-lactamase ratio, agonist, 18 h; hits give high values
[10] = molecular target: Glucocorticoid receptor (Homo sapiens) (UniProt P04150); assay: qHTS assay for small molecule antagonists of glucocorticoid receptor signaling (AID 588533; active = well fitted inhibition curve with a large enough effect in the signal ratio, with a control signal flat, not every such curve was filed as active; the % refers to the signal ratio); settings: HeLa MMTV-bla, GRE beta-lactamase ratio, antagonist mode, 18 h; at 76.8 µM (top of the series)
[11] = molecular target: Peroxisome proliferator-activated receptor delta (Homo sapiens) (UniProt Q03181); assay: qHTS assay for small molecule agonists of peroxisome proliferator-activated receptor delta signaling (AID 588534; calls by dose curve;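 also: 0% = DMSO basal wells and 100% = positive control agonist at 10 µM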); settings: HEK293T PPARdelta-UAS-bla, beta-lactamase ratio, 18 h; at 76.7 µM (top of the series)
[12] = molecular target: Peroxisome proliferator-activated receptor delta (Homo sapiens) (UniProt Q03181); assay: qHTS assay for small molecule antagonists of peroxisome proliferator-activated receptor delta signaling (AID 588535; active = well fitted inhibition curve with a large enough effect in the signal ratio, with a control signal flat, not every such curve was filed as active; the % refers to the signal ratio); settings: HEK293T PPARd-UAS-bla, beta-lactamase FRET ratio, 18 h; at 76.7 µM (top of the series)
[13] = molecular target: Peroxisome proliferator-activated receptor gamma (Homo sapiens) (UniProt P37231); assay: qHTS assay for small molecule agonists of peroxisome proliferator-activated receptor gamma signaling (AID 588536; active = well fitted curve in the direction sought with a large enough effect in the signal ratio, with a control signal flat, not every such curve was filed as active; the % refers to the signal ratio;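 also: 0% = DMSO basal wells and 100% = rosiglitazone at 2 µM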); settings: HEK293 PPARg-UAS-bla, beta-lactamase ratio, 16 h, percent of rosiglitazone response, DMSO as zero; at 76.7 µM (top of the series)
[14] = molecular target: Peroxisome proliferator-activated receptor gamma (Homo sapiens) (UniProt P37231); assay: qHTS assay for small molecule antagonists of peroxisome proliferator-activated receptor gamma signaling (AID 588537; active = well fitted inhibition curve with a large enough effect in the signal ratio, with a control signal flat, not every such curve was filed as active; the % refers to the signal ratio;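 also: reporter cells co-stimulated with 50 nM rosiglitazone agonist during compound treatment; % of control where 0% means no effect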); settings: HEK293 PPARg-UAS-bla, beta-lactamase ratio, antagonist mode; at 76.8 µM (top of the series)
Summary of the method: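 Inhibitors of agonist-stimulated UAS-bla reporter activity were sought in HEK293 cells; rosiglitazone (50 nM) defined full signal and DMSO baseline. Curves fitted to Hill model gave IC50 and efficacy.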

[15] = molecular target: Vitamin D3 receptor (Homo sapiens) (UniProt P11473); assay: qHTS assay for small molecule antagonists of vitamin D receptor signaling (AID 588541; calls by dose curve); settings: HEK293T VDR-UAS-bla, beta-lactamase ratio, antagonist mode; at 76.7 µM (top of the series)
Summary of the method: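 Antagonist-mode beta-lactamase reporter assay: HEK293T VDR-UAS-bla cells were exposed to titrated compound alongside 1-alpha,25-dihydroxyvitamin D3 at 3 nM final for 16 h. Values were normalized to the 50 nM agonist control and DMSO basal, with IC50 and efficacy from Hill equation fits.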

[16] = molecular target: Vitamin D3 receptor (Homo sapiens) (UniProt P11473); assay: qHTS assay for small molecule agonists of vitamin D receptor signaling (AID 588543; calls by dose curve;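 also: 0% = DMSO basal and 100% = reference agonist control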); settings: HEK293T VDR-UAS-bla, beta-lactamase ratio, 16 h; at 76.8 µM (top of the series)
Summary of the method: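 Agonist-mode beta-lactamase reporter: HEK293T VDR-UAS-bla cells in charcoal-stripped 2% FBS, compound series 16 h 37 C, CCF4 2 h RT. EC50 from Hill fit, scaled against DMSO and 50 nM calcitriol control.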

[17] = molecular target: Thyroid hormone receptor beta (Homo sapiens) (UniProt P10828); assay: qHTS assay for small molecule agonists of thyroid hormone receptor beta signaling (AID 588545; calls by dose curve;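 also: 0% = DMSO only and 100% = 10 nM T3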); settings: TR-UAS-bla GripTite HEK 293, beta-lactamase ratio, agonist mode, 18 h, percent of T3 response, DMSO as zero; at 76.7 µM (top of the series)
Summary of the method: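 TR-UAS-bla-GripTite HEK 293 cells in medium with 2% charcoal/dextran FBS, 0.1 mM NEAA and 1 mM sodium pyruvate were treated with titrated compounds for 18 hrs at 37 C. Beta-lactamase reporter was read with CCF4 dye (ex 405, em 460/530 nm); EC50 from Hill fits.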

[18] = molecular target: Retinoic acid receptor RXR-alpha (Homo sapiens) (UniProt P19793); assay: qHTS assay for small molecule antagonists of retinoid X receptor alpha signaling (AID 588546; active = well fitted inhibition curve with a large enough effect in the signal ratio, with a control signal flat, not every such curve was filed as active; the % refers to the signal ratio); settings: HEK293T RXRa-UAS-bla, beta-lactamase ratio, antagonist mode
Summary of the method: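 Beta-lactamase reporter inhibition, read as CCF4 fluorescence ratio (ex 405, em 460/530 nm) after 2 h at RT. HEK293T UAS-bla cells, 2500/well, were stimulated with 9-cis-RA at 500 or 100 nM final alongside test compound for 18 h at 37 C.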

[19] = molecular target: Thyroid hormone receptor beta (Homo sapiens) (UniProt P10828); assay: qHTS assay for small molecule antagonists of thyroid hormone receptor beta signaling (AID 588547; active = well fitted inhibition curve with a large enough effect in the signal ratio, with a control signal flat, not every such curve was filed as active; the % refers to the signal ratio); settings: TR-UAS-bla HEK293, beta-lactamase ratio, antagonist mode, 18 h; hits give low values
Summary of the method: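 Inhibition of T3-driven (0.4nM final) beta-lactamase reporter activity was measured over 0.59 nM to 92 uM compound after 18 h at 37 C. The cells were GripTite HEK293 TR-UAS-bla in charcoal/dextran-stripped serum, with CCF4 ratio read-out and IC50 from Hill fits.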

[20] = qHTS assay for small molecule activators of the p53 signaling pathway (AID 651743; active = well fitted activation curve with a large enough effect in the signal ratio, not every such curve was filed as active; the % refers to the signal ratio; also: % of control where 0% means no effect); settings: HCT-116 p53RE-bla, beta-lactamase FRET ratio, 16 h; activation: hits give high values
[21] = qHTS assay for small molecule activators of the nuclear factor-kappa B (NF-kB) signaling pathway (AID 651749; active = well fitted activation curve with a large enough effect in the signal ratio; the % refers to the signal ratio; also: % of control where 0% means no effect); settings: NF-kB-bla ME-180 cells, beta-lactamase FRET ratio, 16 h; hits give high values
Summary of the method: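 Stably transfected ME-180 line; NF-kB response element upstream of beta-lactamase. Treatment: compound or DMSO, 16 hr. Detection: fluorescent FRET substrate.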

[22] = qHTS assay for environmental chemicals that activate the Aryl hydrocarbon Receptor (AhR) signaling pathway (AID 651777; active = well fitted curve in the direction sought with a large enough effect; an effect the other way counts as inactive or inconclusive; also: % of control where 0% means no effect; nearly all actives have a fitted effect of over 15% in size); settings: 1A2-DRE human hepatoma cells, luciferase, 24 h; hits give high values
Summary of the method: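 Reporter gene assay: hepatoma cells with DRE/CYP1A2-luciferase, 24 hr compound incubation at 37 C, 5% CO2, luminescence after One-Glo (30 min, RT).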

[23] = molecular target: Peroxisome proliferator-activated receptor alpha (Homo sapiens) (UniProt Q07869); assay: qHTS assay for small molecule agonists of the peroxisome proliferator-activated receptor alpha (PPARalpha) signaling pathway (AID 651778; active = well fitted curve in the direction sought with a large enough effect; an effect the other way counts as inactive or inconclusive; also: % of control where 0% means no effect); settings: PathHunter PPARalpha complementation, chemiluminescence, 6 h; hits give high values
[24] = qHTS assay for small molecule agonists of the antioxidant response element (ARE) signaling pathway measured by Nrf2-dependant transcriptional activity (AID 720636; active = well fitted curve in the direction sought with a large enough effect in the repeat runs; an effect the other way counts as inactive or inconclusive;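 also: HepG2 cells with an ARE-driven luciferase reporter; % of control where 0% means no effect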); settings: ARE-luc HepG2, Nrf2 luciferase reporter, 16 h; at 92.4 µM (top of the series)
[25] = qHTS assay for small molecule agonists of the antioxidant response element (ARE) signaling pathway measured by Nrf2-dependant transcriptional activity - cell viability counter screen (AID 720653; active = well fitted curve in the direction sought with a large enough effect in the repeat runs; an effect the other way counts as inactive or inconclusive; also: % is scaled to controls: 0 for no effect and ±100 for the full control effect); settings: ARE-bla HepG2 viability, CellTiter-Glo ATP luminescence, 16 h; hits give low values
Summary of the method: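 Cytotoxicity counter screen: intracellular ATP quantified by CellTiter-Glo luminescence in the same ARE-bla HepG2 plates, after 16 h compound exposure and a 2 h beta-lactamase substrate step.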

[26] = qHTS assay for cell viability of HEK293 cells (AID 743288; active = well fitted curve in the direction sought with a large enough effect; an effect the other way counts as inactive or inconclusive; also: % is scaled to controls: 0 for no effect and ±100 for the full control effect; nearly all actives have a fitted effect of over 50% in size); settings: ATP luminescence (CellTiter-Glo), 18 h; max response: hits give low values
Summary of the method: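 Total intracellular ATP, measured with a luciferase-coupled reagent, indicates the number of viable HEK293 cells. Exposure to test chemicals lasts 18 h at 37 C in 1,536-well format at 2,000 cells/well.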

[27] = qHTS assay for cell viability of the p53RE-bla HCT-116 cell line (AID 743292; active = well fitted curve in the direction sought with a large enough effect; an effect the other way counts as inactive or inconclusive; also: % is scaled to controls: 0 for no effect and ±100 for the full control effect; nearly all actives have a fitted effect of over 55% in size)
Summary of the method: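 ATP-based luminescence, 16 h compound exposure at 37 C, p53RE-bla HCT-116 cells at 4,000/well.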

[28] = molecular target: Nuclear receptor subfamily 1 group I member 2 (Rattus norvegicus) (UniProt Q9R1A7); assay: qHTS assay for small molecule activators of the rat pregnane X receptor (rPXR) signaling pathway (AID 651751; call rule not given here; also: 0% is about no effect); settings: rPXR reporter cells, luciferase (One-Glo), 24 h
[29] = qHTS assay for small molecule activators of the human pregnane X receptor (PXR) signaling pathway (AID 720659; call rule not given here; also: 0% is about no effect); settings: DPX-2 HepG2 CYP3A4-luciferase, 24 h; at 92.3 µM (top of the series)

O=[N+]([O-])c1ccc(C[As](=O)(O)O)cc1
inactive: activity change, negative = inhibition [1] 0.621% | activity change, negative = inhibition [2] -5.46% | activity, negative = inhibition [3] 8.63% | activity change, negative = inhibition [4] 1.25% | activation (PDE inhibition) [5] -4.67%

C[C@@H](O)COc1ccc([As](=O)(O)O)cc1N
inactive: activity change, negative = inhibition [1] -1.83% | activity change, negative = inhibition [2] 3.4% | activity, negative = inhibition [3] 5.45% | activity change, negative = inhibition [4] 3.22% | activation (PDE inhibition) [5] -3.38%

O=[N+]([O-])c1ccc([N+](=O)[O-])cc1
inactive: activity, negative = inhibition [6] 6.48% | activity change, negative = inhibition [7] -2.89% | activation [8] -0.378% | activation [9] -11.1% | activity change, negative = inhibition [10] -10.1% | activation [11] 1.82% | activity change, negative = inhibition [12] -14.5% | activation [13] -9.4% | activity, negative = inhibition [14] -15.4% | activity change, negative = inhibition [15] -2.11% | activation [16] -6.96% | activation [17] -27% | max response [18] -8.68% | inhibition [19] -16.9% | activation [20] 1.07% | activation [21] -0.599% | activation [22] 8.35% | max response [23] -0.739% | activation [24] 0.989% | max response [25] -8.14% | max response [26] -6.19% | Potency [27] | max response [28] 4.36% | activation [29] -6.74%
